Measured values published in PubChem BioAssay (NCI).
The entries are a selection whose mix differs from that of the whole data set.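 Treatment: one concentration, 48 hours, 96-well format. Scoring: percent growth, with anything below 10 considered active.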 Some salts and complexes are drawn in separate pieces, as the source files them; their charges need not balance. Active and inactive are the calls of the source.

Legend:
Assay in all cases: NCI-60 one-dose screen, 48 h (100 = growth as untreated, 0 = no growth, -100 = all killed)
Settings in all cases: 10 µM
[1] = test system: MOLT-4 leukemia
[2] = test system: SR leukemia
[3] = test system: RPMI-8226 leukemia
[4] = test system: OVCAR-8 ovarian
[5] = test system: OVCAR-5 ovarian
[6] = test system: OVCAR-4 ovarian
[7] = test system: SK-OV-3 ovarian
[8] = test system: IGROV1 ovarian
[9] = test system: OVCAR-3 ovarian
[10] = test system: HS 578T breast
[11] = test system: NCI/ADR-RES ovarian
[12] = test system: T-47D breast
[13] = test system: MDA-MB-435 melanoma
[14] = test system: SW-620 colon
[15] = test system: MCF7 breast
[16] = test system: HCT-116 colon
[17] = test system: HCC-2998 colon
[18] = test system: KM12 colon
[19] = test system: BT-549 breast

Measured: growth

Clc1ccccc1SCCBr
inactive: [1] 112% | [2] 95.2% | [3] 99.9% | [4] 101% | [5] 108% | [6] 102% | [7] 109% | [8] 106% | [9] 98.6% | [10] 106% | [11] 107% | [12] 85% | [13] 107% | [14] 101% | [15] 102% | [16] 107% | [17] 94.4% | [18] 92.3%

O=[N+]([O-])c1cc([N+](=O)[O-])c(O)c([N+](=O)[O-])c1.c1ccnnc1
inactive: [1] 97.5% | [2] 99.6% | [3] 104% | [4] 100% | [5] 94.2% | [6] 101% | [7] 112% | [8] 98.9% | [9] 116% | [11] 110% | [12] 93.9% | [19] 101% | [13] 113% | [14] 93.9% | [15] 93.9% | [16] 102% | [17] 103% | [18] 110%

COC(=O)C(O)(c1ccccc1)c1ccccc1
inactive: [1] 120% | [2] 103% | [3] 106% | [4] 102% | [5] 101% | [6] 113% | [7] 94.1% | [9] 123% | [10] 103% | [11] 106% | [12] 92.1% | [19] 95.6% | [13] 102% | [14] 124% | [15] 94.8% | [16] 91.2% | [17] 107% | [18] 109%

OCCSCCO
inactive: [1] 101% | [3] 98.3% | [4] 107% | [5] 110% | [6] 114% | [7] 104% | [8] 100% | [9] 114% | [10] 102% | [11] 108% | [12] 103% | [19] 104% | [13] 95.9% | [14] 110% | [16] 100% | [17] 104% | [18] 105%

CP(=O)(OCCCCl)N(CCCl)CCCl (stereo unspecified)
inactive: [1] 96.1% | [2] 99.2% | [3] 98.5% | [4] 102% | [5] 106% | [6] 105% | [7] 111% | [8] 105% | [9] 114% | [11] 108% | [12] 101% | [19] 110% | [13] 107% | [14] 107% | [15] 94.4% | [16] 105% | [17] 102% | [18] 112%

Cc1c([N+](=O)[O-])cc([N+](=O)[O-])c(Br)c1[N+](=O)[O-]
active: [6] -67.2% | [9] -95.4% | [12] -36.4% | [14] -77% | [16] -100%
inactive: [1] 24.6% | [2] 28% | [3] 83.2% | [4] 51.3% | [5] 120% | [7] 117% | [8] 66% | [11] 79.9% | [19] 95.3% | [13] 63.1% | [15] 45.8% | [17] 97.4% | [18] 94%

CP(=O)(OCCCl)N(CCCl)CCCl (stereo unspecified)
inactive: [1] 83.1% | [2] 91.7% | [3] 97.4% | [4] 103% | [5] 93.9% | [6] 104% | [7] 107% | [8] 106% | [9] 111% | [11] 104% | [12] 88.5% | [19] 107% | [13] 98.3% | [14] 102% | [15] 100% | [16] 98.3% | [17] 98.2% | [18] 99%

O=[N+]([O-])c1cc([N+](=O)[O-])c(O)c([N+](=O)[O-])c1.c1ccc([I+]c2ccccc2)cc1
inactive: [1] 55.5% | [2] 29.7% | [3] 51.2% | [4] 36.6% | [5] 87.2% | [6] 54.4% | [7] 62.8% | [8] 63.5% | [9] 72.1% | [10] 84.3% | [11] 91.3% | [12] 60% | [13] 77.2% | [14] 34.3% | [15] 46.3% | [16] 18.5% | [17] 54.4% | [18] 52.5%

O=[N+]([O-])c1cccc([N+](=O)[O-])c1O
inactive: [1] 105% | [2] 105% | [3] 134% | [4] 105% | [5] 106% | [6] 112% | [7] 106% | [8] 115% | [9] 114% | [10] 102% | [11] 110% | [12] 101% | [13] 111% | [14] 95.2% | [15] 96% | [16] 106% | [17] 121% | [18] 106%

O=C1C(O)=C([N+](=O)[O-])C(=O)C(O)=C1[N+](=O)[O-]
inactive: [1] 94.9% | [2] 88.5% | [4] 105% | [5] 105% | [6] 116% | [7] 94.8% | [8] 94.6% | [9] 102% | [11] 105% | [12] 108% | [19] 104% | [13] 107% | [14] 105% | [15] 103% | [16] 100% | [17] 110% | [18] 107%

CCOC(=O)CSc1c(N)c(C)nn1C.O=[N+]([O-])c1cc([N+](=O)[O-])c(O)c([N+](=O)[O-])c1
inactive: [1] 99.2% | [2] 114% | [3] 99.6% | [4] 116% | [5] 109% | [6] 103% | [7] 102% | [9] 110% | [10] 115% | [11] 105% | [12] 102% | [19] 101% | [13] 96.8% | [14] 98.5% | [15] 94.9% | [16] 108% | [17] 115% | [18] 106%

CP(=S)(Cl)N(CCCl)CCCl (stereo unspecified)
inactive: [1] 93.7% | [2] 103% | [3] 93.9% | [4] 98% | [5] 91.2% | [6] 98.5% | [7] 111% | [8] 92.3% | [9] 128% | [11] 106% | [12] 99.4% | [19] 111% | [13] 104% | [14] 98.1% | [15] 99.7% | [16] 102% | [17] 99.8% | [18] 118%

N=C(N)N(N)[N+](=O)[O-]
inactive: [1] 95.3% | [2] 91.2% | [3] 107% | [4] 106% | [5] 101% | [6] 109% | [7] 105% | [9] 105% | [10] 110% | [11] 106% | [12] 105% | [13] 111% | [14] 104% | [15] 106% | [16] 106% | [17] 106% | [18] 101%

CCCCCCCOP(=O)(CC)OCCCCCCC
inactive: [1] 105% | [3] 103% | [4] 93.2% | [5] 99.8% | [6] 91.4% | [7] 95.3% | [8] 97.4% | [9] 111% | [10] 103% | [11] 105% | [12] 85.9% | [19] 106% | [13] 99.5% | [14] 106% | [15] 92.3% | [16] 101% | [17] 103% | [18] 103%

Cc1ccc(Nc2c([N+](=O)[O-])cc([N+](=O)[O-])cc2[N+](=O)[O-])cc1
inactive: [1] 67.3% | [2] 87.2% | [3] 65.4% | [4] 84.5% | [5] 89.2% | [7] 87.8% | [8] 79.8% | [9] 20.1% | [10] 93.8% | [11] 90.6% | [19] 97.2% | [13] 98.4% | [14] 92.9% | [15] 71.1% | [16] 84.5% | [17] 106% | [18] 91.5%
